System: PC3 cells
Test: Retraction assay: cell retraction and rounding in PC3 cells
Assay type: cell-based, human
Details: Fc alone

C[C@H](CCC(=O)N[C@@H](Cc1c[nH]c2ccccc12)C(=O)O)[C@H]1CC[C@H]2[C@@H]3CC[C@@H]4C[C@H](O)CC[C@]4(C)[C@H]3CC[C@]12C [Compound 20]
effect on cell morphology in the absence of ephrin treatment: did not affect cell morphology

— PMC3953198 (Journal of medicinal chemistry, 2013)
